# AlphaSeq binding of Ab-14 light chain variants to a spike HR2 peptide

Source: Li et al. 2023 (doi:10.1038/s41467-023-39022-2), MIT Lincoln Laboratory and A-Alpha Bio; data file from the FLAb repository.

Binding partner: SARS-CoV-2 spike HR2 peptide, sequence PDVDLGDISGINAS.

Parent: Ab-14, a human scFv built as VH, the linker GGGGSGGGGSGGGGS, VL. Only the CDRs of the light chain vary.
VH: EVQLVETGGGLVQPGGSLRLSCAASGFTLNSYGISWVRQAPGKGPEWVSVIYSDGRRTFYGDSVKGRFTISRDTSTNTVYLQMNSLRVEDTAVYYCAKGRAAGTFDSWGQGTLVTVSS
VL: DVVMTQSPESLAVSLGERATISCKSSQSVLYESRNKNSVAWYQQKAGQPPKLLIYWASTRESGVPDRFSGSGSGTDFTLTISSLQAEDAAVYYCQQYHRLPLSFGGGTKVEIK

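The parent was found by panning a naive human phage display library on the peptide. The variants were designed computationally from a first round of random CDR variants and then made and measured. Their group label is 14L_Ctrl (Ctrl: baseline library sampled from a position-specific scoring matrix, with some repeated check sequences). In AlphaSeq, yeast of one mating type display the scFv and yeast of the other type display the target. After mating in shaken culture at 30 °C for 16 h, diploids were selected and their barcode pairs sequenced. Scores were corrected for input abundance and mapped to Kd with protein pairs of known affinity run in the same pool. There are six technical replicates.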

Substitutions are numbered in sequence along the VL above, starting at 1 (not Kabat).
Affinities are written as log10 Kd with Kd in nM; a lower number is a better binder.
Replicates are averaged; those with no signal do not enter the mean.
"nd" means that the variant was in the library but no mating with the target was seen in that replicate; the authors take this as a sign of poor binding, and no number exists.
A sequence measured in both rounds can read differently, since the two assays cover different ranges.

changes,"replicates, log10 nM","mean, log10 nM",signal with controls
Q27E+R34F,nd / nd / nd / nd / 2.18 / 3.06,2.62,0/18
K24H+S28E+Y31E+E61F,1.75 / 2.10 / 1.63 / 1.73 / 2.12 / 1.73,1.84,1/18 (2.86)
V29W+L30A+K36F+W56S,0.63 / 0.62 / 0.48 / 0.31 / 0.57 / 0.36,0.50,0/18
S33E+W56D+S62Q+H98N+L102D,nd / 1.89 / nd / nd / 1.91 / nd,1.90,0/18
S26R+W56M,2.54 / 1.54 / 1.81 / 3.13 / 2.11 / 2.24,2.23,1/18 (2.87)
S25D+S26D+L30G+N35W+K36S+W56R+Q96G,nd / nd / nd / nd / nd / nd,nd,0/18
Y31G+W56A,0.96 / 1.05 / 0.59 / 1.22 / 0.93 / 0.83,0.93,0/18
S25L+L30E,-0.01 / 0.28 / 0.94 / 0.75 / 0.58 / 0.53,0.51,0/18
S25H+Y31Q,3.58 / nd / nd / nd / 2.61 / 2.57,2.92,0/18
V29W+W56A,0.33 / 0.07 / -0.02 / -0.08 / 0.21 / 0.33,0.14,1/18 (2.88)
Q95S+H98S,nd / nd / nd / nd / nd / 2.10,2.10,0/18
Q27V+R34C,nd / 1.31 / nd / nd / 2.27 / 1.62,1.73,0/18
S25I+R34S+S103G,1.27 / 0.61 / 1.28 / 1.24 / 0.87 / 0.83,1.02,0/18
K24M+S25V,1.52 / 1.14 / 1.93 / 2.70 / 1.78 / 0.66,1.62,1/18 (2.37)
W56D+Y97G,nd / 2.43 / nd / nd / nd / nd,2.43,0/18
S25W+V29I+W56S,0.21 / 0.09 / 0.16 / 0.07 / 0.08 / 0.14,0.13,1/18 (1.87)
S28A+Y31T+H98F+S103R,nd / nd / nd / nd / nd / nd,nd,0/18
K24A+E61V,nd / nd / 1.11 / 1.60 / 2.12 / nd,1.61,2/18 (1.84)
W56N+S58N+Q95P,2.37 / 2.63 / 1.64 / 3.06 / 1.57 / 1.87,2.19,1/18 (2.31)
S25I+L30E+E32G,0.94 / 0.74 / 0.72 / 0.71 / 0.58 / 0.95,0.78,2/18 (2.51)
Y31F+S58T,nd / nd / nd / nd / nd / nd,nd,0/18
K24H+V29K+R34T+N35H+W56Q,0.30 / 0.08 / 0.29 / -0.06 / 0.22 / 0.10,0.15,0/18
S25Y+V29D+K36D+S58T,0.74 / 0.41 / 1.07 / 0.95 / 0.69 / 0.71,0.76,3/18 (2.82)
S25I+Y31D+R34S+S58D,0.56 / 0.41 / 0.82 / 0.13 / 0.53 / 0.71,0.52,2/18 (3.41)
W56E+S62A,0.24 / 0.56 / 0.29 / 0.44 / 0.54 / 1.36,0.57,0/18
A57S,2.45 / nd / nd / nd / nd / nd,2.45,0/18
Y31P+W56Q,0.50 / 0.12 / 0.27 / 0.15 / 0.41 / 0.30,0.29,1/18 (2.14)
S28D+L30P+W56D+T59H,0.13 / 0.06 / -0.04 / -0.13 / -0.03 / 0.17,0.03,0/18
V29A+L30V+S38Q+S103K,nd / nd / 1.09 / nd / nd / 3.85,2.47,0/18
S33H,1.96 / nd / nd / 2.02 / nd / 2.96,2.31,0/18
E32S+W56T,nd / nd / nd / nd / nd / nd,nd,0/18
S25L+E61I,0.83 / 1.04 / 1.23 / 1.03 / 1.42 / 0.79,1.06,1/18 (2.10)
Q27E+A57D+E61V+L100M,0.17 / 1.04 / 1.27 / 1.05 / 1.15 / 0.88,0.92,0/18
S25V+V29D+S33A+S58V+S62T,1.23 / 2.32 / 0.64 / 1.10 / 1.00 / 1.28,1.26,1/18 (2.62)
S28N+Y31T+K36T+W56N+S58D+H98E,-0.65 / -0.60 / -0.39 / 0.04 / -0.42 / -0.44,-0.41,0/18
W56S+E61V,1.17 / 2.04 / 0.83 / 2.14 / 0.72 / 1.38,1.38,1/18 (1.98)
Y31K+E32L+R34G+W56R+H98V,1.39 / 1.23 / 1.36 / 1.51 / 1.65 / 1.83,1.50,2/18 (2.80)
Q96A+L100E,nd / nd / nd / nd / nd / nd,nd,0/18
S25I+S38A,0.81 / 0.77 / 0.69 / 0.31 / 0.51 / 0.90,0.67,1/18 (1.67)

The first 5 variants above that were never detected:

changes,"replicates, log10 nM","mean, log10 nM",signal with controls
S25D+S26D+L30G+N35W+K36S+W56R+Q96G,nd / nd / nd / nd / nd / nd,nd,0/18
S28A+Y31T+H98F+S103R,nd / nd / nd / nd / nd / nd,nd,0/18
Y31F+S58T,nd / nd / nd / nd / nd / nd,nd,0/18
E32S+W56T,nd / nd / nd / nd / nd / nd,nd,0/18
Q96A+L100E,nd / nd / nd / nd / nd / nd,nd,0/18

Of ten entries with the parent sequence, four were seen in most replicates (averages 0.34 to 2.37), three in one and three in none, so single entries are noisy.
The authors averaged sequences with at least three values out of six and counted those with two or fewer as poor binders.
As a blank, each scFv also met three strains without target: over all light chain designs, 4% of these pairings were detected, typically at 2.64 and seldom below 1.59. The control count says in how many pairings with the empty strains this scFv gave a signal, with their mean in brackets.